This test deals with N-terminally truncated recombinant hDHODH enzyme (Homo sapiens, UniProt Q02127). Kind of test: Human DHODH inhibition assay. The following applies: read-out: IC50 range.

Sequences of proteins named here, by UniProt entry; tags and fusion partners are left off.
UniProt Q02127, whole entry: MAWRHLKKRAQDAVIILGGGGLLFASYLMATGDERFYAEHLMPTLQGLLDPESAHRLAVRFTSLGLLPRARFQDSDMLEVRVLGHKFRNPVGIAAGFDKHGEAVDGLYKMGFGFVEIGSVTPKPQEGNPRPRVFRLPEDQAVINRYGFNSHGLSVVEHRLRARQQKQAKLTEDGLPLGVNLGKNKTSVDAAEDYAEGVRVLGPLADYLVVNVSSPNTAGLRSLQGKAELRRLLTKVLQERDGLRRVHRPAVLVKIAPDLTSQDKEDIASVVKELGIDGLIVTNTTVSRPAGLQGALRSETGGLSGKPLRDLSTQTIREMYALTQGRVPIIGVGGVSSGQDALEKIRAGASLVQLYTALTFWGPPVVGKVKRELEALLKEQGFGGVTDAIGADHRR

Experimental findings from patent publication US20240199535A1, “DEUTERATED DHODH INHIBITORS” (priority 2021, published 2024) are described below.

Take `[2H]C([2H])([2H])C([2H])([2H])C([2H])([2H])C([2H])([2H])Oc1cccc(-c2cc(F)c(NC(=O)C3=C(C(=O)O)CCC3)c(F)c2)c1`: the IC50 is < 100 nM.

A word on the IC50: it is the concentration that inhibits the measured activity by half.
